pKi: −log10 of the molar value.
Target: T1, Dimer of Gag-Pol polyprotein [489-587] (Human immunodeficiency virus 1, UniProt P12497)
T1 construct: 489-587
Assay: Protease Inhibition Assay
Settings: pH 5.5; 37 °C
Procedure: Protease activity was measured by continuous chromogenic assay. The chromogenic peptide His-Lys-Ala-Arg-Val-Leu- (p-NO2-Phe)-Glu-Ala-Nleu-Ser (Bachem) was used as a substrate. Reactions were followed by the decrease of absorbance at 300 nm measured by spectrophotometer. Experimental results were analyzed by the nonlinear regression analysis, using a mathematical model for tight binding inhibitors.

## C[C@H](N)C(=O)N[C@@H](C)C(=O)N[C@@H](Cc1ccccc1)[C@@H](O)CCC(=O)NC(c1ccccc1)c1ccccc1 [5-(L-Alanyl-L-alanylamino)-4-hydroxy-6-phenylhexanoic Acid Benzhydrylamide]
  pKi: 5.78
